miR-21 reporter = miR-21 reporter, rising signal; HeLa miR-21 FLuc reporter, luciferase, 48 h; Potency, µM (titrated, usually from 38.3 µM), for the others: at the top dose reporter change, positive = more light; 340,000 tested, under 10 active; AID 2288; active = well fitted rising curve with a large enough effect; inconclusive = small, poorly fitted or top-dose-only effect; inactive = no such curve, though single readings can be large or run the other way;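 also: % of control where 0% means no effect; miR-21 action dims this reporter so a rising signal means less miR-21 action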
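Using DMEM plus 10% FBS, HeLa miR-21-FLuc cells are incubated with test compounds (final up to about 40uM) for 48 hours; firefly luciferase signal is then imaged following reagent-mediated lysis.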
ERG-DNA inh = inhibitors of human ERG Ets domain-DNA interaction. 0.028% of 370,000 active. Potency, µM (series often up to 76.9 µM), for the others: at the highest dose FP activity, negative = inhibition, most hits filed as inhibitors. fluorescence polarization, His-ERG Ets domain / labelled DNA. AID 624246. P11308; active = well fitted inhibition curve with a large enough effect in the polarisation, with a control signal flat; inconclusive = small, poorly fitted or top-dose-only effect, or effect the other way, or a change in a side signal; inactive = no such curve, though single readings can be large or run the other way; the % refers to the polarisation;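 note: polarization taken with two DNA probes labelled with fluorescein and Texas red; potency is the fitted concentration of half-maximal effect; % of control where 0% means no effect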
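His-tagged ERG Ets domain (1 uM in the protein solution; 300mM KCl, 50mM Tris-HCl, 1mM EDTA, 1mM DTT, pH 7.5) received compound, then a probe mix of 5 nM fluorescein-DNA and 100nM Texas-615-DNA. Fluorescence polarization was read for both dyes.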
12-LOX inh = inhibitors of human 12S-lipoxygenase ALOX12; AID 1671190; P18054; Potency, µM (series often up to 108 µM), for the others: at the highest dose activity change, negative = inhibition, most hits filed as inhibitors; purified 12hLO, xylenol orange hydroperoxide absorbance; 1.1% of 580,000 active; note: potency is the fitted concentration of half-maximal effect; % is set by controls: 0 for no effect and ±100 for the full control effect
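Hydroperoxide product was detected by ferrous iron/xylenol orange as the 573 to 405 nm absorbance ratio. Arachidonic acid at 40 uM (final) was turned over for 30 min at room temperature by 150 nM human 12hLO, pH 7.0 Hepes buffer, after 15 min compound preincubation.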
Giardia killer = kills Giardia lamblia; 0.15% of 340,000 active; activity change, % at 7.66 µM, hits read low; Giardia lamblia trophozoite viability; in the data active = activity change below about -80%; inconclusive = between about -30% and that limit;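 note: parasites exposed to compound for two days anaerobically before the ATP read; % is set by controls: 0 for no effect and ±100 for the full control effect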
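Luminescent ATP signal served as the viability read-out, measured 15-30 min after adding ATP detection reagent to trophozoites that had been incubated with compounds for 48 hrs at 37 deg C anaerobically at 100 cells/well.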
PTHR1 ag = agonists of human PTHR1 parathyroid hormone receptor. 0.075% of 410,000 active. AID 743266. Q03431. Potency, µM (titrated, usually from 115 µM), without a hit: top-dose activation, hits mostly activators. HEK293 GP2 PTHR1 cells, GloSensor cAMP luminescence, 1 h; note: potency is the fitted concentration of half-maximal effect; nearly all actives have a fitted effect of over 55% in size
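HEK-293-derived GP2 cells expressing PTHR1 and a GloSensor cAMP reporter, 3,000/well, plated overnight, given luciferin plus IBMX (each 0.5 mM as added) for 1 h at 37 °C, then compound for 1 h at 37 °C. Luminescence was read after 15 min at room temperature.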
PINK1 modulator = modulators of PINK1 expression. PINK1 immunofluorescence, high-content cytometry, 24 h. Potency, µM (doses to about 76.6 µM), for the others: at the top dose activation (PINK1 increase), usual class: activators. 0.2% of 410,000 active. AID 624263; active = well fitted activation curve with a large enough effect; inconclusive = small, poorly fitted or top-dose-only effect; cell line not stated here; note: potency is the fitted concentration of half-maximal effect; % of control where 0% means no effect; nearly all actives have a fitted effect of over 65% in size
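Cells are seeded, rested 12 hours, then given compound at five concentrations or DMSO for 24 hours. After fixation, blocking and antibody staining, PINK1 amount and mitochondrial localization are scored; CCCP serves as control.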
* = called active by the depositor; i = inactive; ? = inconclusive; · = no result; [ ] = another dose, or the depositor's remark. An excerpt weighted towards active compounds, which were near 1.3% of everything screened. Unless noted, calls come from the whole dose curve; as a rule, active = well fitted curve in the direction sought with a large enough effect; inconclusive = small, poorly fitted or top-dose-only effect, or another doubt; inactive = no such curve, though single readings can be large; an effect the other way counts as inactive or inconclusive.

no.	compound	PTHR1 ag	Giardia killer	miR-21 reporter	12-LOX inh	PINK1 modulator	ERG-DNA inh
1	CC(C)Cn1c(-c2ccccc2F)n[nH]c1=S	0%	11	1%	25µM*	-4%	-2%
2	CC(C)Cn1c(-c2ccco2)n[nH]c1=S	i	2	0%	10µM*	17%[38.3 µM]	2%
3	Cc1ccc(CCNc2nc3ccccc3c3nc(-c4cccnc4)nn23)cc1	i	·	1%	-14%	-1%	-1%
4	Oc1ccc(/C=C/c2ccnc3ccccc23)cc1	-30%	12	-32%	?	-2%	-6%
5	C[N+](C)(C)c1ccc(/C=C/c2ccnc3ccccc23)cc1	·	·	·	·	32µM*	·
6	CCN(N=O)c1ccc(/C=C/c2ccnc3ccccc23)cc1	·	·	·	·	0%	·
7	CCC[N+](C)(C)c1ccc(/C=C/c2ccnc3ccccc23)cc1	·	·	·	·	3.2µM*	·
8	COc1ccccc1C1=NOC(COC(=O)c2ccc3ccccc3n2)C1 (stereo not given)	i	14	-4%	-14%	·	·
9	CCCCCCc1cc2cc(S(=O)(=O)c3ccc(F)cc3)c(=O)oc2cc1O	-21%	-16	-4%	?	40µM*	-3%
10	CCn1c(O)c(/C=C/C=C/C=Nc2ccccc2)sc1=S	-11%	25	-9%	?	0%	12%
11	Oc1c(/C=C/C=C/C=Nc2ccccc2)sc(=S)n1Cc1ccccc1	i	-3	-26%	13µM*	2%	102%
12	CCCCn1c(O)c(/C=C/C=C/C=Nc2ccccc2)sc1=S	i	12	-21%	13µM*	0%	107%
13	Oc1c(Br)cc(Br)cc1CNc1cccc2cccnc12	-49%	-1	6%	14µM*	5%	-9%
14	Cn1ccnc1CN1CCN(C(C(=O)O)c2cccc3c2OCC3)CC1 (stereo not given)	·	·	·	-28%	·	·
15	COc1ccc2cc(Br)ccc2c1CC(=O)N(C)C	-6%	-9	-4%	246%	1%	-3%
16	COc1ccc(CCN(C)Cc2c(O)ccc3cc(Br)ccc23)cc1OC	-21%	8	0%	18µM*	1%	0%
17	COc1ccc(CN(C)Cc2c(O)ccc3cc(Br)ccc23)cc1OC	-60%	-16	6%	28µM*	5%	-7%
18	CCOc1ccccc1Oc1coc2cc(OCc3ccc(OC)cc3)ccc2c1=O	·	·	·	5%	·	·
19	C=CCSc1nc2sc3c(c2c(=O)n1CC)CCc1ccccc1-3	i	9	1%	7.1µM*	1%[38.3 µM]	-4%
20	CCCCCCSc1nc(N)c2c3c(sc2n1)CCCC3C (stereo not given)	-6%	·	-75%	5%	-1%	-2%
21	O=C(NCc1ccc(F)cc1)C(=O)NCC(c1ccc2c(c1)OCO2)N1CCOCC1 (stereo not given)	i	·	0%	-16%	0%	-3%
22	N#CC1(NC(=O)CSc2c(Cl)cccc2Cl)CCCCC1	·	·	·	14µM*	·	·
23	CN(C)CCNCc1ccc(OC2CCCC2)cc1	-11%	-6	-3%	2%	3%[38.3 µM]	-9%
24	COc1ccc(/C=C/C(=O)c2ccc(C#N)cc2)cc1F	·	·	·	-1%	·	·
25	COc1cc(/C=C/C(O)=C/C(=O)/C=C/c2ccc(O)cc2)ccc1O	-24%	-6	·	13µM*	27%	159%
26	COc1cc(C(=O)/C=C/c2ccc(SC)cc2)ccc1O	·	·	·	40µM*	·	·
27	CCOc1cc(/C=C/C(=O)c2ccc(Cl)c(Cl)c2)ccc1O	·	·	·	6.3µM*	·	·
28	CCOc1ccc(/C=C/C(=O)c2ccc(Cl)cc2)cc1	·	·	·	2%	·	·
29	COc1cc(/C=C/C(=O)c2ccc(C#N)cc2)cc(Br)c1O	·	·	·	8.9µM*	·	·
30	COc1ccc(/C=C/C(=O)c2ccc(C(=O)/C=C/c3ccc(OC)c(OC)c3)cc2)cc1OC	i	-13	21%	0%	15%	5%
31	Cc1cc(/C=C/C(=O)c2ccc(F)cc2)cc(C)c1O	·	·	·	45µM*	·	·
32	CCOc1cc(/C=C/C(=O)c2ccc(C)cc2)cc(Br)c1O	·	·	·	40µM*	·	·
33	COc1ccc(/C=C/C(=O)c2ccc(O)c(CCCl)c2)cc1C	·	·	·	32µM*	·	·

Reformatted with two lines to a compound: five of the compounds above.
Each structure is followed by: PTHR1 ag, Giardia killer, miR-21 reporter, 12-LOX inh, PINK1 modulator, ERG-DNA inh
25: COc1cc(/C=C/C(O)=C/C(=O)/C=C/c2ccc(O)cc2)ccc1O
    -24%, -6, ·, 13µM*, 27%, 159%
29: COc1cc(/C=C/C(=O)c2ccc(C#N)cc2)cc(Br)c1O
    ·, ·, ·, 8.9µM*, ·, ·
28: CCOc1ccc(/C=C/C(=O)c2ccc(Cl)cc2)cc1
    ·, ·, ·, 2%, ·, ·
21: O=C(NCc1ccc(F)cc1)C(=O)NCC(c1ccc2c(c1)OCO2)N1CCOCC1 (stereo not given)
    i, ·, 0%, -16%, 0%, -3%
30: COc1ccc(/C=C/C(=O)c2ccc(C(=O)/C=C/c3ccc(OC)c(OC)c3)cc2)cc1OC
    i, -13, 21%, 0%, 15%, 5%

Bioassay records (PubChem BioAssay)
